{
  "source": "patent US9239331B2",
  "about": "“Method for predicting the response to HER2-directed therapy” (Ventana Medical Systems, Inc., priority 2002, dated 2016)",
  "origin": "cited, not measured here",
  "key": {"MKN7 cells": {"test_system": "MKN7 cells", "settings": "MKN7 erbB receptor-overexpressing carcinoma cell line; cited from earlier work"}, "BT474 cells": {"test_system": "BT474 cells", "settings": "BT474 erbB receptor-overexpressing carcinoma cell line; cited from earlier work"}},
  "data": [
    {"substance": "trastuzumab [HERCEPTIN®]", "values": [
      {"measurement": "response of cells to HERCEPTIN®", "setting": "MKN7 cells", "value": "do not"},
      {"measurement": "response of cells to HERCEPTIN®", "setting": "BT474 cells", "value": "respond"}
    ]}
  ]
}
